# In patent US10449162B2, “Delivery of drug nanoparticles and methods of use thereof” (DFB Soria, LLC, priority 2015, dated 2019):
# Test: Solubility of the active in Franz cell receptor fluid
# Assay type: physicochemical
# Conditions: 96 wt % PBS pH 7.4 and 4 wt % hydroxyl propyl beta cyclodextrin
substance,measurement,value
paclitaxel,Solubility of the active in the receptor fluid,~0.4 µg/mL
